Measured values reported in ChEMBL document CHEMBL3734700, “Design, synthesis and biological activity of 4-[(benzimidazol-1-yl)methyl]biphenyl-2-sulphonamides as dual angiotensin II and endothelin A receptor antagonists” (Medchemcomm, 2015).

Protein sequences, listed by entry. Tags and fused reporters are not part of them.
UniProt P25101, whole entry: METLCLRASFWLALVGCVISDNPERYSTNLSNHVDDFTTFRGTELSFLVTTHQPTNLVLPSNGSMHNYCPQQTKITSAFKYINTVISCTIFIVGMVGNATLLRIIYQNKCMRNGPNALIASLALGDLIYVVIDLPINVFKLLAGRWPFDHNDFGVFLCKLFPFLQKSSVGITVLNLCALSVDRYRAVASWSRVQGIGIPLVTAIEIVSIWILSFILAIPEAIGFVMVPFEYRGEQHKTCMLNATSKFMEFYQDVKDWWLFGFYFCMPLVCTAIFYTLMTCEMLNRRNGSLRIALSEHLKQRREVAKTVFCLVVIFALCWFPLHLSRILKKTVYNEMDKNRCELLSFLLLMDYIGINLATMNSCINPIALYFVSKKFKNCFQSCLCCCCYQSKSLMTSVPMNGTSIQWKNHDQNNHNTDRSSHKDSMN

Each compound was assayed against Type-1 angiotensin II receptor (Homo sapiens, UniProt P30556) (assay: Displacement of 125I-labeled Sar1-Ile8-angiotensin II from human AT1 receptor incubated for 2 hrs by gamma counting analysis).
`CCCCC1=NC2(CCCC2)C(=O)N1Cc1ccc(-c2ccccc2S(=O)(=O)Nc2onc(C)c2C)c(CN2CCC(C)(C)C2=O)c1` [BMS-248360] showed an IC50 of 6 nM. For `CCCc1nc2c(n1Cc1ccc(-c3ccccc3S(=O)(=O)Nc3onc(C)c3C)c(C)c1)C(=O)CCCC2`, the IC50 was 2 nM. `CCCCc1nc(Cl)c(C(N)=O)n1Cc1ccc(-c2ccccc2S(=O)(=O)Nc2onc(C)c2C)cc1` showed an IC50 of 24 nM. `CCCc1nc(Cl)c(C(N)=O)n1Cc1ccc(-c2ccccc2S(=O)(=O)Nc2onc(C)c2C)cc1` was tested, and the IC50 was 21 nM. `CCCc1nc(CC)c(C(N)=O)n1Cc1ccc(-c2ccccc2S(=O)(=O)Nc2onc(C)c2C)c(CC)c1` showed an IC50 of 1.3 nM. `CCCc1nc(CC)c(C(=O)NC)n1Cc1ccc(-c2ccccc2S(=O)(=O)Nc2onc(C)c2C)c(COC)c1` was tested, and the IC50 was 8 nM. In the case of `CCCc1nc2c(n1Cc1ccc(-c3ccccc3S(=O)(=O)Nc3onc(C)c3C)c(CO)c1)C(=O)CCCC2`, the IC50 is reported as 30 nM.

What follows are compounds tested against Endothelin-1 receptor (Homo sapiens, UniProt P25101) (assay: Displacement of 125I-labeled endothelin 1 from human ETA receptor expressed in CHO-K1 cells incubated for 4 hrs by gamma counting analysis).
Format: cell-based
For `CCCCC1=NC2(CCCC2)C(=O)N1Cc1ccc(-c2ccccc2S(=O)(=O)Nc2onc(C)c2C)c(CN2CCC(C)(C)C2=O)c1` [BMS-248360], the IC50 was 2 nM.
